From ChEMBL document CHEMBL1932917, “4,5-dihydropyridazin-3-one derivatives as histamine H₃ receptor inverse agonists” (Bioorg Med Chem Lett, 2012) come the findings set out here.

The nature of this data set: Clearance in rat at 1 mg/kg, iv. Type of data set: ADME, organism-based. Details: dose 1 mg/kg, route intravenous. The settings on record: in vivo.

For the compound `CC1CC(=O)NN=C1c1ccc(OCCCN2CCC[C@H]2C)cc1` (stereo in doubt; 19a), the clearance (commonly a measure of how efficiently the substance is removed, as volume per time) was 22 mL/min/kg.
